Measured values taken from article PMC9039622, “Triglyceride-Mimetic Prodrugs of Buprenorphine Enhance Oral Bioavailability via Promotion of Lymphatic Transport” (Frontiers in Pharmacology, 2022).
Marks after values point to notes of the source that are not given here.

Legend:
[1] = Bioavailability / pharmacokinetic study in conscious, carotid artery cannulated rats; type: in vivo, Male Sprague-Dawley rats
Experimental: All animal experiments were approved by the Monash Institute of Pharmaceutical Sciences animal ethics committee and were conducted in accordance with the Australian and New Zealand Council for the Care of Animals in Research and Teaching guidelines. Male Sprague-Dawley rats (270–320 g) were maintained on a standard diet and fasted overnight with free access to water prior to experiments. In experiments where surgical anaesthesia was required (i.e., for the cannulation of the carotid artery, jugular vein, and mesenteric lymph duct), rats were anaesthetised using a combination of ketamine, xylazine and acepromazine and placed on a heated pad at 37°C as described previously ([Johnson et al., 2003]). At the end of experiments rats were euthanised via intraperitoneal, intra-arterial or intravenous (when an indwelling cannula was present) administration of 100 mg pentobarbitone.
The systemic exposure of BUP was examined after oral administration of BUP or BUP prodrugs in carotid artery cannulated conscious rats (for the group of animals that received BUP intravenously (IV), the jugular vein was also cannulated for IV infusion). After surgery and recovery, the rats were housed in Culex Automated Blood Sampler systems (BASi, West Lafayette, Indian, United States) with free movement as described previously ([Mannila et al., 2012]). After drug administration via bolus oral gavage or IV infusion (over 5 min), blood samples (150 µl) were taken from the carotid artery cannula 5 min prior to administration and up to 24 h post-dosing and centrifuged at 4,500 g for 5 min to separate plasma. During the blood sample collection period the rats had free access to water at all times but remained fasted for a further 8 h following drug administration. Plasma samples were stored at −20°C prior to analysis for BUP as described in the Supplementary Material. The area under the plasma concentration-time curves from zero to designated time intervals (AUC0-t) were calculated using the linear trapezoidal method. The oral bioavailability of BUP was estimated via comparison of dose normalised AUC0–6h following oral dosing of BUP or TG prodrugs with the AUC0-inf following IV infusion of BUP (AUC0-inf was calculated via the addition of Ct/k to AUC0-t, where Ct is the last observed quantifiable concentration and k is the terminal phase elimination rate constant). Truncated AUCs (AUC0–6h) were used for the oral pharmacokinetic studies due to the presence of a second peak in the BUP plasma concentration versus time profile, most likely reflecting enterohepatic recycling ([Ohtani et al., 1994]).
To determine BUP concentrations in plasma or lymph, 20 µl plasma or lymph samples were diluted 1:3 or 1:10 v/v with methanol respectively. The samples were then vortexed for 1 min, centrifuged at 4500 g for 5 min and 50 µl or 150 µl of supernatant analysed by HPLC-MS/MS. As the TG prodrugs were expected to undergo resynthesis with potentially multiple different available fatty acids in the enterocyte and therefore to generate a variety of glyceride derivatives of BUP for transport into the lymph, two hydrolytic methods were developed to quantify total BUP derivatives in the lymph. For analysis of the samples collected after administration of BUP-C4-TG, BUP-CE-C4-TG, BUP-TML-C4-TG and BUP-C5βMe-TG, hydrolysis of potential glyceride derivatives of BUP in lymph was achieved via addition of 100 µl 0.5 M NaOH in 1:1 (v/v) ethanol:water to 20 µl of lymph and heating at 60 °C for 90 min. […]

[2] = limited by intestinal and hepatic first-pass metabolism; ref Taylor et al., 2013; cited from earlier work

Substance: Buprenorphine
- AUC (0-inf) of BUP in plasma ([1]; IV infusion over 5 min, 10 µg, normalized to 0.06 mg/kg BUP, Mean ± SEM): 60.7 ± 5.8 ^a nM × h
- Tmax ([1]; IV infusion, Mean ± SEM): 4.8 ± 0 min
- Cmax of BUP ([1]; IV infusion, normalized to 0.06 mg/kg BUP, Mean ± SEM): 215 ± 44 ^a nM
- BA (% of IV) ([1]; IV reference group): 100%
- time to peak plasma concentration ([1]; oral bolus dose by gavage): 15 min
- oral bioavailability (BA) [2]: less than 10%
